Test results reported in patent US20210355166A1, “ANALGESICS AND METHODS OF USE THEREOF” (priority 2018, published 2021).

Sequences of proteins named here, by UniProt entry; tags and fusion partners are left off.
UniProt P33535, whole entry: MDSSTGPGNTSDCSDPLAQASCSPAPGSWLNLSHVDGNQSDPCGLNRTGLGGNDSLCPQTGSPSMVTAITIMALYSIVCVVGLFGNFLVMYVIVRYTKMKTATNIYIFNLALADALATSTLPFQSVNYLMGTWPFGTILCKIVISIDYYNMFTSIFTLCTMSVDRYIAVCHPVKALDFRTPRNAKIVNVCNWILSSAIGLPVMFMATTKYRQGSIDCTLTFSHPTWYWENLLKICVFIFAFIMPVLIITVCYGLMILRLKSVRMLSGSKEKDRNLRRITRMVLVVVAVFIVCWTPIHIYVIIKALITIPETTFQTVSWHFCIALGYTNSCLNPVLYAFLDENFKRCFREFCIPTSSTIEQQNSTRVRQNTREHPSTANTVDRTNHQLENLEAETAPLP
UniProt P35372, whole entry: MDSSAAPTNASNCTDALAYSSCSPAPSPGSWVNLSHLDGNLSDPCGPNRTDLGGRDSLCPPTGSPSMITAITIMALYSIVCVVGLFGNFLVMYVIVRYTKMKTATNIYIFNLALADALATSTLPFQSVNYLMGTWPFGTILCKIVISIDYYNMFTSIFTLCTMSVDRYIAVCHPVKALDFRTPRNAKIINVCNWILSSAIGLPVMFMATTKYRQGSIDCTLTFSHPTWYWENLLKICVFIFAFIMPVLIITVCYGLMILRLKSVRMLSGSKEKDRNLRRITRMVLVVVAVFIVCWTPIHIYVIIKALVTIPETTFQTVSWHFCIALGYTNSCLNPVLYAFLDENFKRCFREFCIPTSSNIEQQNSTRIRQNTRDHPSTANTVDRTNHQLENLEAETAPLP

What was measured:
MOPr = target: T1, MOPr (Rattus norvegicus, UniProt P33535); assay: Patch-clamp recordings of GIRK currents in rat locus coeruleus (LC) neurons; type: cell-based; details: 10-30 μM
T1 construct: which natively express MOPr but not DOPr or KOPr; from tissue; host or cells: brain slices with locus coeruleus neurons, male Sprague Dawley rats
Description: Briefly, rats were anesthetized with isoflurane and decapitated. The brain was dissected and mounted in a vibratome chamber (Leica biosystem, VT100, Wetzlar, Germany) in order to prepare horizontal brain slices (280 μm). […] Slices were incubated in warm oxygenated ACSF for at least 30 min before recording. Slices were transferred to the recording chamber while warm ACSF (34° C.) was superfused at a rate of ˜2 mL/min. Whole-cell voltage-clamp recordings were acquired from LC neurons with Multiclamp 700B amplifier (Molecular Devices, CA, USA) at holding potential of −60 mV. […] Continuous current recordings were collected in chart mode at 500 Hz and filtered at 20-50 Hz using Axograph X (Axograph Scientific, Sydney, Australia). Series resistance monitored throughout the experiments and remained <15 MΩ; otherwise the data were discarded. Outward current was measured as the difference between baseline current and peak current of drug application.

human MOPr (hMOPr) = target: T2, human MOPr (hMOPr) (Homo sapiens, UniProt P35372); assay: Inhibition of forskolin induced cAMP formation in HEK cells expressing hMOPr; type: cell-based; details: 10 μM
T2 construct: expressed in transfected cells; host or cells: HEK cells
Description: Procedure for measuring the level of intracellular cAMP produced upon modulation of adenylate cyclase activity by G-protein-coupled receptors (GPCRs). To test the functional interaction between opioids, and opioid-like compounds, and specific opioid GPCRs by measuring changes in intracellular cAMP levels relative to basal levels. The assay can measure agonist and antagonist activity on GPCRs by stimulating cells to either increase or decrease intracellular cAMP levels.
The assay is performed in a 384-well plate and each data point is performed in triplicate. The test compounds should be analyzed on the same plate as controls and cAMP standards. The number of compounds to be screened for activity will determine the volume of reagents and cells required for each experiment. The test compounds, controls and cAMP standards can be added to the plate in advance or while the cells are incubating with stimulation buffer. The plate should be sealed with TopSeal adhesive sealing film to avoid evaporation.
Assay background: Detection of cAMP is based on the competition between intracellular cAMP and biotinylated cAMP linked streptavidin-coated donor beads for anti-cAMP conjugated acceptor beads. When the donor and acceptor beads are in close proximity a signal emitted at 520-620 nm is detected using the Envision multilabel plate reader. […]

SMILES	activity in LC neurons (MOPr)	activity in cAMP screen (human MOPr (hMOPr))
CC(C)[C@H](NC(=O)[C@@H](NC(=O)[C@@H](N)Cc1ccc(O)cc1)C(C)C)C(=O)N[C@@H](Cc1ccccc1)C(N)=O [3f, H-YVVF-NH2]	inactive	
CC(C)[C@H](NC(=O)[C@@H](NC(=O)[C@@H](N)Cc1ccc(O)cc1)C(C)C)C(=O)N[C@@H](Cc1ccccc1)C(=O)O [3e, H-YVVF-OH]	inactive	
CC(C)[C@H](NC(=O)[C@@H](NC(=O)[C@@H](N)Cc1ccccc1)C(C)C)C(=O)N[C@@H](Cc1ccccc1)C(N)=O [1h, H-FVVF-NH2]		less active
